# From patent US10357438B2, “Metal salt compositions” (Colgate-Palmolive Company, priority 2014, dated 2019)
# Test system: five species, planktonic mix of representative oral species (Actinomyces viscosus, Lactobacillus casei, Streptococcus oralis, Fusobacterium nucleatum, and …)
# Conditions: 1% elemental Zn final concentration; 1 h incubation; resazurin fluorescence
substance,measurement,value
sodium dizinc citrate chloride,% viability,2.0%
